Structures are written as SMILES. Bounds are passed on as bounds.

For this series, the system named is Karpas 1106p cells. The series is described as follows: Cytotoxicity (LD50) against Karpas lymphoma cells. It is filed as cell-based, human. To be noted: Table 3. As to the method: Table 3 lists the inhibition kinetic parameters, selectivity index, and calculated log Ps of selected dipeptides. Hill slopes of all compounds were <1.0 (FIG. 5A). […] Their cytotoxicity against the Karpas lymphoma cells was determined (Table 4). The LD50s (Table 4) correlated with the IC50s for c-20S inhibition, as the LD50s were equal to or slightly higher than the IC50s for c-20S inhibition (FIG. 6).
Consider `C[C@H](NC(=O)[C@H](CC(=O)NOC(C)(C)C)NC(=O)CN1CCOCC1)C(=O)NCc1cccc2ccccc12` [DPLG-2099, (S)—N4-(tert-butoxy)-2-(2-morpholinoacetamido)-N1-((S)-1-((naphthalen-1-ylmethyl)amino)-1-oxopropan-2-yl)succinamide], for which the LD50 was >100 µM.
With `Cc1nc(C(=O)N[C@@H](CC(=O)NOC(C)(C)C)C(=O)N[C@@H](C)C(=O)NCc2cccc3ccccc23)cs1` [DPLG-2102, (S)—N4-(tert-butoxy)-2-(2-methylthiazole-4-carboxamido)-N1-((S)-1-((naphthalen-1-ylmethyl)amino)-1-oxopropan-2-yl) succinamide] the figure was 42 µM; with `Cc1cc(C(=O)N[C@@H](CC(=O)NOC(C)(C)C)C(=O)N[C@@H](C)C(=O)NCc2cccc3ccccc23)no1` [DPLG-2105, (S)—N4-(tert-butoxy)-2-(5-methylisoxazole-3-carboxamido)-N1-((S)-1-((naphthalen-1-ylmethyl)amino)-1-oxopropan-2-yl)succinamide], 18 µM; with `COC[C@H](NC(=O)[C@H](CCC(=O)NC(C)(C)C)NC(=O)CCc1ccccc1)C(=O)NCc1cccc2ccccc12` [DPLG-2243], 0.062 µM.
As to `C[C@H](NC(=O)[C@H](CCC(=O)NC(C)(C)C)NC(=O)CCc1ccccc1)C(=O)NCc1cccc2ccccc12` [DPLG-2255], the LD50 amounted to 0.028 µM.
For `Cc1ccc(S(=O)(=O)N[C@@H](CCC(=O)NC(C)(C)C)C(=O)N[C@@H](C)C(=O)NCc2cccc3ccccc23)cc1` [DPLG-2256] the value was 0.034 µM.
